Assay results reported in ChEMBL document CHEMBL4364298 (J Med Chem, 2019).

Chains of the proteins cited; added tags and fusions are not shown.
UniProt P35367, whole entry: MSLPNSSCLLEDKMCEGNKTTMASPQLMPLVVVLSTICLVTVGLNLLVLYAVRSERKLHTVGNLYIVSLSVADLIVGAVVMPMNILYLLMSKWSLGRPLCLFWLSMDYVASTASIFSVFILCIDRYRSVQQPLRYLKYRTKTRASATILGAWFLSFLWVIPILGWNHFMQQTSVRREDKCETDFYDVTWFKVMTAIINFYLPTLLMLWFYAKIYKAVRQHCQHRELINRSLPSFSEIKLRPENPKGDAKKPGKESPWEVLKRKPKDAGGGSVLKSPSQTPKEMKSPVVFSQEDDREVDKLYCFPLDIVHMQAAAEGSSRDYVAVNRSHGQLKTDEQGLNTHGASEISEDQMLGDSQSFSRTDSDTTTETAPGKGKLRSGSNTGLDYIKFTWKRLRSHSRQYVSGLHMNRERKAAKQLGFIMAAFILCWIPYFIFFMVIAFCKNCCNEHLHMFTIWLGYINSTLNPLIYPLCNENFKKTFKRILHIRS

biological target: Histamine H1 receptor (Homo sapiens, UniProt P35367); test: biochemical; type: cell-based

Ki [nM]	SMILES
1	CC(C)N1CCC(=C2c3ccc(Cl)cc3CCc3cccnc32)CC1
0.794	Clc1ccc2c(c1)CCc1cccnc1C2=C1CCN(CC2CCC2)CC1
5.01	Clc1ccc2c(c1)CCc1cccnc1C2=C1CCN(Cc2ccncn2)CC1
7.59	Cc1ccc(CN2CCC(=C3c4ccc(Cl)cc4CCc4cccnc43)CC2)cn1
0.417	CCN1CCC(=C2c3ccc(Cl)cc3CCc3cccnc32)CC1
5.01	Clc1ccc2c(c1)CCc1cccnc1C2=C1CCN(Cc2cccnc2)CC1
7.94	Cc1cccc(CN2CCC(=C3c4ccc(Cl)cc4CCc4cccnc43)CC2)c1
1.26	Clc1ccc2c(c1)CCc1cccnc1C2=C1CCN(CC2CCCC2)CC1
2.14	Clc1ccc2c(c1)CCc1cccnc1C2=C1CCN(C2CCC2)CC1
3.16	Clc1ccc2c(c1)CCc1cccnc1C2=C1CCN(Cc2ncccn2)CC1
20	Clc1ccc2c(c1)CCc1cccnc1C2=C1CCN(C2CCCCC2)CC1
2.51	Clc1ccc2c(c1)CCc1cccnc1C2=C1CCN(CC2CCCCC2)CC1

The remaining lines, values behind:

SMILES	Ki [nM]
Clc1ccc2c(c1)CCc1cccnc1C2=C1CCN(C2CCCC2)CC1	3.98
Clc1ccc2c(c1)CCc1cccnc1C2=C1CCN(Cc2ccccc2)CC1	3.98
Cc1ccncc1CN1CCC(=C2c3ccc(Cl)cc3CCc3cccnc32)CC1	12.9
Clc1ccc2c(c1)CCc1cccnc1C2=C1CCN(Cc2ccccn2)CC1	3.16
Clc1ccc2c(c1)CCc1cccnc1C2=C1CCN(CC2CC2)CC1	0.631
Clc1ccc2c(c1)CCc1cccnc1C2=C1CCN(C2CC2)CC1	3.16
Cc1ncccc1CN1CCC(=C2c3ccc(Cl)cc3CCc3cccnc32)CC1	8.91
CCC(CC)CN1CCC(=C2c3ccc(Cl)cc3CCc3cccnc32)CC1	1.78
Clc1ccc2c(c1)CCc1cccnc1C2=C1CCN(Cc2ccncc2)CC1	7.94
